# Measured affinities in a library of Ab-14 light chain variants

Reference: Li et al. 2023, doi:10.1038/s41467-023-39022-2. File: FLAb, binding data.

All variants were tested on one target, the spike HR2 peptide PDVDLGDISGINAS (SARS-CoV-2).

Each scFv is VH, the linker GGGGSGGGGSGGGGS, VL, as in the parent Ab-14, and differs from it in the CDRs of the light chain only.
VH: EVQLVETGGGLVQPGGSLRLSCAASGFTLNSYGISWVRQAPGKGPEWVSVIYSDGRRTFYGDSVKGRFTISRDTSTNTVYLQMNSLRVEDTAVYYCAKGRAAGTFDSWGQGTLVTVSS
VL: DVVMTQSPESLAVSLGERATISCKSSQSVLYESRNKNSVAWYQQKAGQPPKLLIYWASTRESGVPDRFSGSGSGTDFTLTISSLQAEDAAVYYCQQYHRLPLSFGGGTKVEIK

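The parent was found by panning a naive human phage display library on the peptide. This is the validation round: designs drawn from the data on random variants, tested in the same kind of assay. Group labels follow the data file (Ctrl: baseline library sampled from a position-specific scoring matrix, with some repeated check sequences; Rand: our label for a block that the file lists under HC and that is probably the random mutants of the ten best first-round binders; En: ensemble of fine-tuned language models; GP: Gaussian process model; HC: hill climbing; Gen: genetic algorithm; Gibbs: Gibbs sampling; a sequence that several methods proposed may carry one label only). AlphaSeq pools MATa yeast showing the antibodies with MATalpha yeast showing the peptide. Binding brings cells together so that they mate, and sequencing counts the barcode pairs among the diploids. Read counts were normalised to the haploid input and turned into Kd by a linear fit to BCL2-family pairs of known affinity, for each replicate. Mating was done six times.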

Variants are written as CDR1, CDR2 and CDR3 of the light chain (limits as in the source). Parent: KSSQSVLYESRNKNSVA, WASTRES, QQYHRLPLS.
Affinities are written as log10 Kd with Kd in nM; a lower number is a better binder.
A mean of the replicates is given; it leaves out those without a signal.
"nd" marks a missing value. The strain was present, yet no cells mated with the target were sequenced in that replicate, which points to weak or no binding.
Entries are sorted by rising average, undetected variants last.
The range of this assay differs from that of the first round, and the authors advise against merging the two.
Three control strains display no target. For all light chain designs, 4% of the pairings with them gave a signal, with a median of 2.64 and one signal in twenty below 1.59, so weak values seen in few replicates may be background.
The authors averaged sequences with at least three values out of six and counted those with two or fewer as poor binders.
The parent sequence was in this pool as ten entries: three were never detected, three once, and four in most replicates, with averages from 0.34 to 2.37.

Read-out -0.37, -0.42, -0.20, -0.53, -0.40, -0.33 (mean -0.38), from KLSQEVLMEQRNHNSVA | SANTREE | QQYHRLPLS [GP_Gibbs].
Read-out -0.24, -0.58, -0.25, -0.34, -0.43, -0.33 (mean -0.36), from KVSQSELYESRNKNSVA | EASQRES | QDYHRLPLS [GP_Gen].
Read-out -0.28, -0.33, -0.32, -0.41, -0.42, -0.24 (mean -0.33), from KFEPSWLYESRNVNSVA | NASTRSD | QQYHRLPLS [GP_Gibbs].
Read-out -0.30, -0.38, -0.30, -0.40, -0.31, -0.23 (mean -0.32), from KLPQSWLYESRNKNSVA | DASTRES | QQYHRLPLS [GP_Gen].
Read-out -0.29, -0.32, -0.20, -0.37, -0.35, -0.31 (mean -0.31), from KLQQSNLYESRNKNNVA | EATQREQ | QQYHRLPLS [GP_Gibbs].
Read-out 0.01, -0.14, -0.16, -0.30, -0.20, 0.01 (mean -0.13), from KFVQSQDYESRNKNSVA | QASQREQ | QQYHRLPLS [GP_Gibbs].
Read-out -0.01, -0.22, -0.05, -0.21, -0.06, 0.05 (mean -0.08), from KSLQSHLYESRNKNSVA | QASTRED | QQYGRLPLS [GP_HC].
Read-out 0.06, -0.03, -0.18, -0.02, -0.22, -0.06 (mean -0.08), from KVQQSGLYESRNKNSVA | EASTRES | QQYHRLPLS [GP_Gen].
Read-out 0.08, -0.12, -0.11, -0.10, -0.21, 0.08 (mean -0.06), from KFSQSVLYEQRTKNSVA | NASTRES | QQYHRLPLS [Rand].
Read-out -0.02, 0.07, -0.15, 0.08, -0.03, -0.02 (mean -0.01), from KLSQSFDYESRNKNSVA | DASTRES | QQYHRLPLS [GP_Gen].
Read-out 0.31, -0.01, -0.32, -0.13, -0.18, 0.29 (mean -0.01), from KVSQSFLYEQRNKNSVA | EASTRES | QQYHRLPLS [GP_Gen].
Read-out 0.25, -0.04, 0.07, 0.07, -0.16, 0.30 (mean 0.08), from KARQSELYESRNQNSVA | NASQRLE | QQYHRLPLS [GP_Gibbs].
Read-out 0.18, 0.36, 0.08, -0.03, 0.18, 0.22 (mean 0.17), from KQAQAFLMESRNKNSVA | DANTRES | QQYHRLPLS [GP_HC].
Read-out 0.19, 0.51, 0.21, 0.11, 0.19, 0.21 (mean 0.24), from KLYHMTGIESHAKNSLA | DANRRED | QQYHRLPLS [En_HC].
Read-out 0.44, 0.39, 0.31, 0.10, -0.07, 0.37 (mean 0.26), from KFSPSVLYESRTKNSVA | DASTRES | QQYHRLPLS [GP_HC].
Read-out 0.34, 0.26, 0.26, 0.23, 0.21, 0.39 (mean 0.28), from SFSQSVLYEQVHKNNVA | QTSTRES | QQYDHLPLS [En_HC].
Read-out 0.48, 0.23, 0.19, 0.18, 0.30, 0.32 (mean 0.28), from HVGQTRQADISNKKSVA | EGEVLID | QQYGRLPFS [En_Gibbs].
Read-out 0.48, 0.29, 0.30, 0.08, 0.33, 0.37 (mean 0.31), from KVRQSTLYESRNKNSVA | NASTRES | QQYHRLPLS [GP_HC].
Read-out 0.38, 0.33, 0.53, 0.10, 0.23, 0.40 (mean 0.33), from KSSISYLGEKANKNSVA | EASTRES | QQYHRLPLS [GP_HC].
Read-out 0.20, 0.38, 0.29, 0.49, 0.62, 0.35 (mean 0.39), from KLSQSHLYESRNKNSVA | NASTRLM | QQYHRLPLS [GP_Gen].
Read-out 0.53, 0.58, 0.31, 0.36, 0.81, 0.71 (mean 0.55), from KVEMSQLYESRNKNSVA | NASLRMS | QQYHRLPLS [GP_Gibbs].
Read-out 1.01, 0.19, 0.54, 0.66, 0.25, 1.08 (mean 0.62), from KSLQSQLYESRNKNSVA | HASTRED | QQYHRLPLS [GP_HC].
Read-out 0.84, 0.83, 0.34, 0.35, 0.58, 0.80 (mean 0.62), from KSSWSVLYESNNVNSVA | NASTRED | QQYHRLPLS [GP_HC].
Read-out 0.55, 0.70, 0.42, 0.60, 0.66, 0.89 (mean 0.64), from KVEQKVMMGSRNKNSVA | HASVREQ | QQYHRLPLS [GP_Gibbs].
Read-out 0.53, 0.73, 0.83, 0.60, 0.88, 0.56 (mean 0.69), from MMSQVSGLGQRTRNNVA | QTSTREP | QQYDRLPLI [En_Gen].
Read-out 0.67, 0.86, 0.61, 0.66, 0.64, 0.86 (mean 0.72), from TISGVMQSVSHSKNNVA | EMNTRLE | QQYVRLPLA [En_Gen].
Read-out 1.90, 0.74, 0.34, 0.65, 0.07, 0.81 (mean 0.75), from KLQMMVEMESRNPNSVA | SASTRLS | QQYHRLPLS [GP_Gibbs].
Read-out 0.66, 0.81, 1.17, 0.65, 0.41, 1.10 (mean 0.80), from QIAGSEEEVGIHKNSIA | ENTVRPE | QQYLRLPLH [En_Gibbs].
Read-out 0.60, 0.65, 1.06, 0.93, 0.73, 1.16 (mean 0.85), from KQSQSVLMESRNKNSVA | MASTRES | QQYHRLPLS [GP_HC].
Read-out 1.49, 1.58, 0.78, 0.65, 0.65, 0.37 (mean 0.92), from KWMQMVMQESRNKNSVA | HASTRMQ | QQYHRLPLS [GP_Gibbs].
Read-out 1.10, 0.93, 1.04, 0.68, 0.88, 0.95 (mean 0.93), from KMSQSWLYEDWNKNSVA | QASQRMS | QQYHRLPLS [GP_Gibbs].
Read-out 1.00, 1.03, 0.96, 0.60, 1.37, 0.91 (mean 0.98), from MISQLTNMGTFAINSVA | QASIRNS | QQYDRLPLI [En_Gen].
Read-out nd, nd, 0.46, 1.82, nd, nd (mean 1.14), from KSMQSVLYESRNKNSVA | WASTRES | QQYERLPLS [Ctrl].
Read-out 0.84, 1.24, 0.89, 1.69, 0.93, 1.28 (mean 1.15), from SLMDNIWVEDTYRNAIA | DRNVRAK | QQYHLLPLS [En_Gibbs].
Read-out 1.51, 0.92, 0.88, 1.76, 0.86, nd (mean 1.19), from HMSMITLGGMRARNSVA | QMTTREN | QQYDHLPLS [En_Gen].
Read-out 1.36, 1.37, 1.36, 1.27, 1.30, 0.82 (mean 1.25), from KSSQSVLYESTNKNSVA | WASTRES | QQYHRLPLS [Ctrl].
Read-out nd, nd, 1.63, nd, nd, nd, from KSSQSGLYESRNKNSVA | WASTRES | QQYHRLPLS [Ctrl].
Read-out 2.19, 1.50, 1.26, 1.11, 2.02, 2.41 (mean 1.75), from KSSHSDLYEGRNKNSVA | WASTREL | QQYHRLPLS [Ctrl].
Read-out 2.17, 1.96, 2.38, 1.94, 1.58, 2.07 (mean 2.02), from SIRQVTDDLQATHDAIA | DASQIEP | QQYSWLPLS [En_Gibbs].
Read-out 2.13, 1.69, 1.73, 2.45, 2.07, 2.07 (mean 2.02), from KSSQSVLYESQNKNSVA | WASTRES | QQYHSLPLS [Ctrl].
Read-out nd, nd, nd, 1.99, 2.53, 2.23 (mean 2.25), from KVSEFMRGLLMRKNSIA | DNVTRSN | QQYDRLPLS [En_Gen].
Read-out nd, 2.28, nd, nd, nd, nd, from KSSQSVLYEMRNKNSVA | WASTRES | QQYHRLPLS [Ctrl].
Read-out nd, nd, nd, 2.29, nd, 2.31 (mean 2.30), from KSRPSVLYESTNKNSVA | WASTRES | QAYHRLPLS [Ctrl].
Read-out nd, nd, nd, nd, 2.61, nd, from MVTQMAMTGMMSKRSVA | NAEQRED | QQYHRLPLI [En_Gen].
Read-out nd, 2.66, nd, 3.83, 3.62, 2.59 (mean 3.17), from KSNQSVLYESRNCNSVA | WASTRES | QQYHRLPLS [Ctrl].
Read-out nd, 2.12, 4.67, nd, nd, 3.50 (mean 3.43), from KSSQWVLYESRNKNSVA | WASTRES | QQYHRLPLS [Ctrl].
Read-out nd, nd, nd, nd, nd, nd, from KFSRSVLYESRTKSSVD | NASTRES | QQYHRLPLS [Rand].
Read-out nd, nd, nd, nd, nd, nd, from KLSQQTLYETRNKNSVA | WASTREE | QQYHRLPLS [GP_HC].
Read-out nd, nd, nd, nd, nd, nd, from KSSISVLYSSRNKNSVA | WASKRES | QQYHRLPLS [Ctrl].

For reference, 4 entries of the list once more:

CDR-L1	CDR-L2	CDR-L3	group	log10 Kd (nM) by replicate	log10 Kd (nM), mean
KSSWSVLYESNNVNSVA	NASTRED	QQYHRLPLS	GP_HC	0.84, 0.83, 0.34, 0.35, 0.58, 0.80	0.62
KSSHSDLYEGRNKNSVA	WASTREL	QQYHRLPLS	Ctrl	2.19, 1.50, 1.26, 1.11, 2.02, 2.41	1.75
KSSISYLGEKANKNSVA	EASTRES	QQYHRLPLS	GP_HC	0.38, 0.33, 0.53, 0.10, 0.23, 0.40	0.33
KSLQSHLYESRNKNSVA	QASTRED	QQYGRLPLS	GP_HC	-0.01, -0.22, -0.05, -0.21, -0.06, 0.05	-0.08